Laboratory results published in patent publication US20090234018A1, “Non-Standard Amino Acid Conjugates of Amphetamine and Processes for Making and Using the Same” (priority 2006, published 2009).

Legend:
[1] = rat, oral; plasma d-amphetamine
[2] = Oral PK study of Lys-Amp, hArg-Amp, Orn-Amp and Cit-Amp (Example 9); conditions: rat
[3] = Average of 4 oral PK studies of Lys-Amp and hArg-Amp (Example 7, Table 3); conditions: average of 4 oral studies, n=20
[4] = Oral gavage PK study of Lys-Amp and hArg-Amp, plasma d-amphetamine by ELISA (Example 7); conditions: rat, […] d-amphetamine freebase equivalent

Question: Which Tmax [1] does the source give for `C[C@@H](Cc1ccccc1)NC(=O)[C@@H](N)CCCCN=C(N)N.Cl.Cl` [hArg-Amp, l-homoarginine-d-amphetamine dihydrochloride] here?
Answer: 4 h

Question: What about the “Tmax compared to Lys-Amp” value [2] of the same molecule?
Answer: significantly shifted the Tmax

Question: And the Tmax [3]?
Answer: 4 h

Question: And the Tmax [4]?
Answer: 4 h

Like-named read-outs stand apart in the source and are kept apart here.
